The source of these data is patent US10570075B2, “Compounds” (DSM IP ASSETS B.V., priority 2015, dated 2020).

Protein sequences, listed by entry. Tags and fused reporters are not part of them. Residues count along the entry.
UniProt P11473, 127-423 limits assumed: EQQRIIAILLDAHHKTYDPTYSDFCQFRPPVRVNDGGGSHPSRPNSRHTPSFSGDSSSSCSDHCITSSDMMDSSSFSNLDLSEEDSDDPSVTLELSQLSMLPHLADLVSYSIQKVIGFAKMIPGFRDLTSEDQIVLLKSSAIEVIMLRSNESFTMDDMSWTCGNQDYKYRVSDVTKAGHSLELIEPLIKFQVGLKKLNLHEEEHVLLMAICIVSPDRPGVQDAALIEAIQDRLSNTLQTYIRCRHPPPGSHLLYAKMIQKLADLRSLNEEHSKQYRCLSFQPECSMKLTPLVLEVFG

This assay deals with human vitamin D receptor (VDR) (Homo sapiens, UniProt P11473). In words: Human vitamin D receptor (VDR) agonist activity, GAL4-VDR LBD luciferase transactivation assay in HEK293 cells. The settings on record: read-out: Effective concentrations of half maximal activation (EC50); transiently transfected HEK293 cells, VDR LBD-GAL4 DBD hybrid receptor, pFR-Luc luciferase reporter, 16 h incubation. On the technique in general: A reporter such as luciferase makes a cellular process visible.

For `CC/C(=C\C=C\C(O)(C(F)(F)F)C(F)(F)F)c1cccc(CCc2ccc(CO)c(CO)c2)c1`, the EC50 is 17 nM.
